Laboratory results reported in patent US7294629B2, “Quinazoline derivatives” (Mitsubishi Pharma Corporation, priority 2001, dated 2007).

Assays:
[1] = biological target: mutated c-erbB2 (HER2) constitutively activated, in transformed NIH3T3 cells (A4 cell) (Homo sapiens, UniProt P04626, V659E); assay: HER2 tyrosine kinase inhibitory action (phosphotyrosine Western blotting in A4 cells); details: 2 hrs, signal without compound = 100%
A431 tumor = assay: In vivo antitumor effect on A431 tumor in nude mice; parameters: species or system Balb/c female nude mice; details: for relative tumor growth rate: volume at start = 1
[2] = 1 mg/kg orally once a day for 14 days
[3] = 10 mg/kg orally once a day for 14 days

% of control at 0.1 μM (phosphorylation signal) [1] [%]	% of control at 1 μM (phosphorylation signal) [1] [%]	SMILES	% of control (antitumor effect) (A431 tumor; [2]) [%]	relative tumor growth rate (A431 tumor; [2])	% of control (antitumor effect) (A431 tumor; [3]) [%]	relative tumor growth rate (A431 tumor; [3])	antitumor effect (in words) (A431 tumor; A431 tumor, oral, 14 days)
16	5	C=CC(=O)Nc1cc2c(Nc3ccc(F)c(Cl)c3)ncnc2cc1C#CC(C)(C)N1CCC(=O)CC1	–	–	–	–	–
61	31	C=CC(=O)Nc1cc2c(Nc3ccc(F)c(Cl)c3)ncnc2cc1C#CC(C)(C)N(C)CCN(C)C	97.2	5.63	1.8	1.09	dose-dependent antitumor effect
